Test results from patent US20070053894.

Sequences of proteins named here, by UniProt entry; tags and fusion partners are left off. Residues count along the entry.
UniProt P00747, 20-810: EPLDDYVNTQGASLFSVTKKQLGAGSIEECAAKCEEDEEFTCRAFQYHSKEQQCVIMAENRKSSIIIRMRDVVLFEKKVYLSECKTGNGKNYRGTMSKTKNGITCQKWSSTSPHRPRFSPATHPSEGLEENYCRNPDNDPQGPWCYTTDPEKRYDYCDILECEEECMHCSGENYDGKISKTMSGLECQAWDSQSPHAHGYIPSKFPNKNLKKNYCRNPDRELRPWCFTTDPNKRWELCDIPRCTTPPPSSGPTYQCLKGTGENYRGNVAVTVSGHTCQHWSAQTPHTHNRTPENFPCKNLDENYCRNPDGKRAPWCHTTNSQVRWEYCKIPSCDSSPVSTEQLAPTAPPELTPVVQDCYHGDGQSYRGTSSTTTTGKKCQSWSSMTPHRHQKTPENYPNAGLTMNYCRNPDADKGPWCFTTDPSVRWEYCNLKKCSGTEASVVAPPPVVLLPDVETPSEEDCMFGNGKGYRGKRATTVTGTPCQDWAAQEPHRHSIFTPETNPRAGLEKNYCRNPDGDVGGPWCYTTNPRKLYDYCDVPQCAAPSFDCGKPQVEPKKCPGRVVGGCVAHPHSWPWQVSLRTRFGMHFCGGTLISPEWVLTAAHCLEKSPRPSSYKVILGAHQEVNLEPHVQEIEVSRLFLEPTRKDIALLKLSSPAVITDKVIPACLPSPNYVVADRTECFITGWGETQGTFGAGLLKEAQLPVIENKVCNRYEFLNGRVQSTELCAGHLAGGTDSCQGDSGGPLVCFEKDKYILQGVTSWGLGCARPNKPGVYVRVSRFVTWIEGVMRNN

Molecular target: plasminogen (UniProt P00747)

pro-urokinase plasminogen activator (pro-uPA)
apparent Km of pro-uPA for plasminogen, with 250 nM p97: from 188±22 to 102±17 nM
apparent Km of pro-uPA for plasminogen, without p97: from 188±22 to 102±17 nM
